Key:
Experiment in all cases: cell-based or functional assay
[1] = target: PfRH5 from Plasmodium falciparum strain D10 (Plasmodium falciparum)
[2] = target: PfRH5 from Plasmodium falciparum strain Dd2 (Plasmodium falciparum)
[3] = target: PfRH5 from Plasmodium falciparum strain 7G8 (Plasmodium falciparum)

B1: H1H29163P2 (antibody, V domains shown)
VH: QVQLVQSGAEVKKPGASVKVSCKTSGYTFTAYYIHWVRQAPGQGLEWMGWINPNNGDTNYALRFQGRVTMTRDMSINTAYMELRGLRSDDTAVYYCARDDLAAAGIGWFDSWGQGTLVTVSS
VL: not shown
[1]
  Max growth inhibition (%): 71.8%

B2: H1H29149P2 (antibody, V domains shown)
VH: QVQLQESGPGLVKPSQTLSLTCTVSGGSISSGGYYWNWIRQHPGKGLEWIGYIYYSGSTYYNPSLKSRVTISVDTSKNQFSLKLGSVTAADTAVYYCARAPPYNWFDYWGQGTLVTVSS
VL: not shown
[2]
  Max growth inhibition (%): 50.3%

B3: H1H29187P2 (antibody, V domains shown)
VH: QVQLVESGGGVVQPGRFLRLSCAASGFTFSNSGMHWVRQAPGKGLEWVAGIWHDGSYKYYVDSVKGRFTISRDNSKNTLFLQMNSLRAEDTAVYYCARDDYYASGTSVDVWGQGTTVTVSS
VL: not shown
[3]
  Max growth inhibition (%): 71.8%
